Earlier results on one substance are cited in patent publication US20170027951A1, “METHODS AND COMPOSITIONS TO TREAT CANCERS INVOLVING EGFR” (Southern Research Institute, priority 2015, published 2017).

The conditions of this series: patients with mCRC, Karapetis et al. 2008; cited from earlier work.

As for cetuximab, the “patients with WT KRas who respond” value is recorded as 12.8%.
